Measured values: ChEMBL document CHEMBL1130600, “Tropane-based amino acids for peptide structure-function studies: inhibitors of platelet aggregation” (Bioorg Med Chem Lett, 1998)

Species: Homo sapiens
Assay: Compound was tested for its ability to inhibit the thrombin-induced platelet aggregation in washed human platelets
Format: functional

IC50: 50 µM
Structure (SMILES): N=C(N)NCCC[C@H](N)C(=O)NCC(=O)N[C@@H](CC(=O)O)C(=O)N[C@@H](CO)C(=O)O
